From patent US8569512B2

Sequences of proteins named here, by UniProt entry; tags and fusion partners are left off.
UniProt P56373, whole entry: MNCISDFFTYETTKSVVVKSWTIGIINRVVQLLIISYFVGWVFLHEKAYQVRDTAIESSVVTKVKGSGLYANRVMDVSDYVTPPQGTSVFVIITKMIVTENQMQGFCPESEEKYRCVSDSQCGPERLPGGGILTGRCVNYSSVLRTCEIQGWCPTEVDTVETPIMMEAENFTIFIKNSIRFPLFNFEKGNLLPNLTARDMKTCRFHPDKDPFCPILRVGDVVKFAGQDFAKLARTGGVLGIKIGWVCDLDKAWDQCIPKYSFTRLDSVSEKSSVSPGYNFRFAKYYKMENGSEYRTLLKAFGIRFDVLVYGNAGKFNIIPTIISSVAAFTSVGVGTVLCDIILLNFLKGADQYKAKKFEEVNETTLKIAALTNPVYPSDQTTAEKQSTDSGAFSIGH

Target: human P2X3 (Homo sapiens, UniProt P56373)
Experiment: Intracellular Calcium Measurement to Assess Antagonist Affinity (FLIPR, Fluo-4)
Conditions: Intracellular Calcium Measurement to Assess Antagonist Affinity assay; agonist α,β-meATP at EC50
Description: Generation of a Human P2X3 and P2X2/3 Stable Cell Line—Human P2X3 receptor cDNA (Accession number NM_002559) was subcloned as a 5′XhoI and 3′HindIII fragment into the expression vector pcDNA5/FRT (Invitrogen). Human P2X2 receptor cDNA (Accession number NM_174873) was subcloned as a 5′EcoRI and 3′NotI fragment into the expression vector pIRESneo2 (BD Biosciences Clontech). The human P2X3 expression construct was transfected using Lipofectamine 2000 (Invitrogen) into Flp-in—293 cells (Invitrogen) according to the manufacturer's directions. Cells positive for flp-mediated recombination of rhesus P2X3 were selected using 150 μg/ml hygromycin. […] Intracellular Calcium Measurement to Assess Antagonist Affinity—A fluorescent imaging plate reader (FLIPR; Molecular Devices) was used to monitor intracellular calcium levels using the calcium-chelating dye Fluo-4 (Molecular Probes). The excitation and emission wavelengths used to monitor fluorescence were 488 nm and 530 nm, respectively. […] During this period fluorescence data is collected at 3 sec intervals followed by 10 sec intervals. […] Following agonist addition fluorescence was measured at 5 sec intervals and analyzed based on the increase in peak relative fluorescence units (RFU) compared to the basal fluorescence. […]

Cc1noc([C@@H](C)NC(=O)c2cc3c(-c4ccc(F)cc4F)n(CCO)nc3s2)n1
IC50: 63 nM
